From article PMC5460915 (Molecular pharmaceutics, 2015)

Sequences of proteins named here, by UniProt entry; tags and fusion partners are left off.
UniProt P30989, whole entry: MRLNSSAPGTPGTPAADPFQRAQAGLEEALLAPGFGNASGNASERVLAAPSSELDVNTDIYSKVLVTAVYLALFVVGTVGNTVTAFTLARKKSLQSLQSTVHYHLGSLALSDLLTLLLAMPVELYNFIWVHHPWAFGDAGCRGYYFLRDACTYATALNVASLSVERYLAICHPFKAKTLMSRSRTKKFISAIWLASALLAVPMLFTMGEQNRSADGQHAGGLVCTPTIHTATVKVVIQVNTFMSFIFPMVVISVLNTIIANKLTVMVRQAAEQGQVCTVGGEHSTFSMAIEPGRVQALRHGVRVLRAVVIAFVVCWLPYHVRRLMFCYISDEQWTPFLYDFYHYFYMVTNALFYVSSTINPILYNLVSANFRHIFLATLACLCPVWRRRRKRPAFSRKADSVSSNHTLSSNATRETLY

Biological target: NTR1 (NTR1-positive HT-29 cells) (Homo sapiens, UniProt P30989)
Assay: In vitro competitive cell binding assay against 125I-NT
Conditions: as supported by the similar IC50 values

Substance: pGlu-Leu-Tyr-Glu-Asn-Lys-Pro-Arg-Arg-Pro-Try-Ile-Leu [NT, reference compound]
- binding affinity compared between DOTA-NT-Cy5.5 and NT (in words): not significantly different
